System: Clone 9 human liver cells
Experiment: Effect on liver cell (intracellular glutathione)
Details: compound 10 μg/ml, 24 hours
Procedure: Clone 9 human liver cells (8×10^6 cells) (manufactured by Dainippon Pharmaceutical Co., Ltd.) were inoculated in a petri dish (manufactured by Nunc) with a diameter of 6 cm, and the cells were cultured in DMEM containing 10% deactivated FBS for 3 days at 37° C. in the presence of 5% carbon dioxide gas. When the cells were 80% confluent, the medium was exchanged with DMEM containing 0.5% FBS. After the cells were naturalized for 24 hours, the culture medium was removed by suction and exchanged with fresh DMEM containing 0.5% FBS, and the test substances were dissolved in ethanol. […] 24 hours after the addition, the cells were collected, and glutathione measurements were performed by the method described in Example 5.

SMILES | Effect on hepatocyte (glutathione), ratio to control
OC[C@H]1O[C@@H](OCCc2ccc(O)c(O)c2)[C@H](O)[C@@H](O)[C@@H]1O [DPE-1-O-β-D-Glucopyranocide, 2-(3,4-dihydroxyphenyl)ethanol-1-O-β-D-glucopyranocide] | 1.13
OCCc1ccc(O[C@@H]2O[C@H](CO)[C@@H](O)[C@H](O)[C@H]2O)c(O)c1 [DPE-4′-O-β-D-Glucopyranocide, 2-(3,4-dihydroxyphenyl)ethanol-4′-O-β-D-glucopyranocide] | 1.19

— patent publication US7740831B2, “Compositions for potentiating glutathione” (Fancl Corporation, priority 2001, dated 2010)
